These results are taken from ChEMBL document CHEMBL6103561, “Chemical dissection of selective myeloid leukemia-1 inhibitors: How they were found and evolved” (Eur J Med Chem, 2025).

This test concerns RS4-11. In words: Antitumor activity against human RS4;11 cells xenografted in mouse assessed as tumor growth inhibition at 50 mg/kg, iv relative to control. Type of test: functional. More on the design: scale not given: the % may be the effect or the level left. A general note: A xenograft is tissue or cells of one species grown in another, often human tumour cells in immunodeficient mice.

With `COc1ccc(Oc2ccc(C)cc2-c2ccsc2S(=O)(=O)NCCNC(=O)Nc2cc(C(F)(F)F)cc(C(F)(F)F)c2)cc1OC`, the Activity is recorded as 75%.
